Where two headings read alike, the source gives them in different places.

For data set [1] the following is noted: Mandema et al. 1996; oral solution 20 mg; cited from earlier work.
The conditions of data set [2]: human, in vivo.
For data set [3] the following is noted: male, human, in vivo.

In the case of `COc1ccc2c3c1OC1C(=O)CC[C@@]4(O)[C@@H](C2)N(C)CC[C@]314` (stereo partly drawn) [oxycodone, 4,5-epoxy-14-hydroxy-3-methoxy-17-methylmorphinan-6-one], the ka mean value is 4.19 h⁻¹ in data set [1], 4.19 h⁻¹ in data set [2] and 6.48 h⁻¹ in data set [3].

These data come from patent US20050106249A1 (priority 2002, published 2005).
